The results in this text go back to US10005817.

Protein sequences, listed by entry. Tags and fused reporters are not part of them. Residues count along the entry.
UniProt Q03431, 27-593: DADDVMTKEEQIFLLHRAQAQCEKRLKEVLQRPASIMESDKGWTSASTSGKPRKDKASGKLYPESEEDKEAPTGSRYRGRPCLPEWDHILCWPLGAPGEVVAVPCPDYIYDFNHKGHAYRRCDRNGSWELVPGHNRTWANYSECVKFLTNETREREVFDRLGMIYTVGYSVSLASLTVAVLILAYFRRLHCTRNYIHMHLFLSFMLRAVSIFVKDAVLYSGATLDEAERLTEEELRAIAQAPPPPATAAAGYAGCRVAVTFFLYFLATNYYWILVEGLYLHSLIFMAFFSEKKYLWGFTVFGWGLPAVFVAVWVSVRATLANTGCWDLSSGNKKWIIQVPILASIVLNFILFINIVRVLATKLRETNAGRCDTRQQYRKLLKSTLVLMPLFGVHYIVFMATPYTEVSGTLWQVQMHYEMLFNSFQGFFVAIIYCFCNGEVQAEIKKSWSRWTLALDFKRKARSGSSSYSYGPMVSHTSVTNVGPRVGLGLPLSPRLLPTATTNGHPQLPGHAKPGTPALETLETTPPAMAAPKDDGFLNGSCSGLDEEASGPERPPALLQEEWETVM

The target in this assay is PTH receptor (PTHR1) (human) (UniProt Q03431). In words: cell-based or functional assay.

Regarding “human PTHrP (coded sample) (from UniProt P12272 37-70) (ligand)”, the maximal response stood at 100%.
